According to patent US20080221144A1, “Controlled Release Formulations” (Innovative Drug Delivery Systems, Inc., priority 2004, published 2008):

Conditions: metabolic ratio, comparison of oral, intravenous, intranasal

CN1CC[C@]23c4c5ccc(O)c4O[C@H]2[C@@H](O)C=C[C@H]3[C@H]1C5.O=S(=O)(O)O [10 mg IV + IN Placebo, morphine sulphate]
Formation of M-3-G from morphine (rank among routes): least
Formation of M-6-G from morphine (rank among routes): least
